Experimental data reported in patent US20210071139A1.

Legend:
TOX [1] = biological target: TOX (UniProt Q66JW3); assay: anti-TOX IP from EL4 cells, mass spectrometry, MiST analysis
TOX [2] = biological target: TOX (UniProt Q66JW3); assay: anti-TOX IP from EL4 nuclear extract, LC-MS/MS, MiST vs IgG control
TOX [3] = biological target: TOX (UniProt Q66JW3); assay: anti-TOX IP from EL4 nuclear extract, LC-MS/MS, MiST analysis
TOX [4] = biological target: TOX (UniProt Q66JW3); assay: TOX co-IP from EL4 nuclear extract, LC-MS/MS, MiST

Substance: Paf1 (from UniProt Q8K2T8 1-535)
- Abundance (TOX [1]): 9.64e-06
- MiST Score (TOX [1]): 0.798
- Reproducibility (TOX [1]): 0.573
- Specificity (TOX [1]): 0.907

Substance: Rpl3 (from UniProt P27659 1-403)
- Abundance (TOX [1]): 0.000661
- MiST Score (TOX [1]): 0.815
- Reproducibility (TOX [1]): 0.924
- Specificity (TOX [1]): 0.773

Substance: Rpl23 (from UniProt P62830 1-140)
- Abundance (TOX [2]): 0.0029
- MiST Score (TOX [2]): 0.756
- Reproducibility (TOX [2]): 0.994
- Specificity (TOX [2]): 0.655

Substance: Hist1h3i; Hist1h3a; H3f3a (from UniProt P68433 2-136)
- Abundance (TOX [2]): 0.004
- MiST Score (TOX [2]): 0.752
- Reproducibility (TOX [2]): 0.95
- Specificity (TOX [2]): 0.67

Substance: Rpl13 (from UniProt P47963 1-211)
- Abundance (TOX [1]): 0.00376
- MiST Score (TOX [1]): 0.801
- Reproducibility (TOX [1]): 0.953
- Specificity (TOX [1]): 0.739

Substance: Rpl10; Rpl10l (from UniProt Q6ZWV3 1-214)
- Abundance (TOX [2]): 0.00109
- MiST Score (TOX [2]): 0.752
- Reproducibility (TOX [2]): 0.944
- Specificity (TOX [2]): 0.673

Substance: Rps24 (from UniProt P62849 1-133)
- Abundance (TOX [3]): 0.00147
- MiST Score (TOX [3]): 0.767
- Reproducibility (TOX [3]): 0.996
- Specificity (TOX [3]): 0.671

Substance: Tceb1 (from UniProt P83940 1-112)
- Abundance (TOX [4]): 0.00012
- MiST Score (TOX [4]): 0.848
- Reproducibility (TOX [4]): 0.95
- Specificity (TOX [4]): 0.809

Substance: Rpl6 (from UniProt P47911 1-296)
- Abundance (TOX [2]): 0.00317
- MiST Score (TOX [2]): 0.759
- Reproducibility (TOX [2]): 0.973
- Specificity (TOX [2]): 0.669

Substance: Rpl32 (from UniProt P62911 1-135)
- Abundance (TOX [3]): 0.00013
- MiST Score (TOX [3]): 0.783
- Reproducibility (TOX [3]): 0.315
- Specificity (TOX [3]): 1

Substance: Leo1 (from UniProt Q5XJE5 2-667)
- Abundance (TOX [2]): 7.69e-06
- MiST Score (TOX [2]): 0.76
- Reproducibility (TOX [2]): 0.974
- Specificity (TOX [2]): 0.671

Substance: Rpl7a (from UniProt P12970 1-266)
- Abundance (TOX [1]): 0.00461
- MiST Score (TOX [1]): 0.798
- Reproducibility (TOX [1]): 0.888
- Specificity (TOX [1]): 0.764

Substance: Polr2b (from UniProt Q8CFI7 1-1174)
- Abundance (TOX [4]): 7.04e-07
- MiST Score (TOX [4]): 0.835
- Reproducibility (TOX [4]): 0.486
- Specificity (TOX [4]): 1

Substance: Supt6h (from UniProt Q62383 2-1726)
- Abundance (TOX [4]): 2.72e-07
- MiST Score (TOX [4]): 0.847
- Reproducibility (TOX [4]): 0.524
- Specificity (TOX [4]): 1

Substance: Rpl8 (from UniProt P62918 1-257)
- Abundance (TOX [1]): 0.00354
- MiST Score (TOX [1]): 0.809
- Reproducibility (TOX [1]): 0.995
- Specificity (TOX [1]): 0.733

Substance: Rpl26 (from UniProt P61255 1-145)
- Abundance (TOX [3]): 0.00499
- MiST Score (TOX [3]): 0.783
- Reproducibility (TOX [3]): 0.983
- Specificity (TOX [3]): 0.7

Substance: Rpl21 (from UniProt O09167 1-160)
- Abundance (TOX [3]): 0.00566
- MiST Score (TOX [3]): 0.778
- Reproducibility (TOX [3]): 0.997
- Specificity (TOX [3]): 0.687

Substance: Rpl5 (from UniProt P47962 2-297)
- Abundance (TOX [1]): 0.00103
- MiST Score (TOX [1]): 0.799
- Reproducibility (TOX [1]): 0.984
- Specificity (TOX [1]): 0.723

Substance: Rpl34; Gm2178 (from UniProt Q9D1R9 1-117)
- Abundance (TOX [3]): 0.00658
- MiST Score (TOX [3]): 0.768
- Reproducibility (TOX [3]): 0.937
- Specificity (TOX [3]): 0.699

Substance: Rpl28 (from UniProt P41105 2-137)
- Abundance (TOX [4]): 0.0019
- MiST Score (TOX [4]): 0.835
- Reproducibility (TOX [4]): 0.981
- Specificity (TOX [4]): 0.777

Substance: Polb (from UniProt Q8K409 1-335) (enzyme)
- Abundance (TOX [3]): 8.62e-05
- MiST Score (TOX [3]): 0.776
- Reproducibility (TOX [3]): 0.986
- Specificity (TOX [3]): 0.689

Substance: Acaca (from UniProt Q5SWU9 1-2345) (enzyme)
- Abundance (TOX [3]): 2.64e-07
- MiST Score (TOX [3]): 0.775
- Reproducibility (TOX [3]): 0.29
- Specificity (TOX [3]): 1

Substance: Gtpbp4 (from UniProt Q99ME9 2-634)
- Abundance (TOX [3]): 4.52e-05
- MiST Score (TOX [3]): 0.775
- Reproducibility (TOX [3]): 0.968
- Specificity (TOX [3]): 0.695

Substance: Mrto4 (from UniProt Q9D0I8 1-239)
- Abundance (TOX [4]): 0.000166
- MiST Score (TOX [4]): 0.849
- Reproducibility (TOX [4]): 0.997
- Specificity (TOX [4]): 0.79
